Results as given in patent US10172814B2, “Substituted pyridyl-cycloalkyl-carboxylic acids, compositions containing them and medical uses thereof” (BAYER PHARMA AKTIENGESELLSCHAFT, priority 2014, dated 2019).

By UniProt entry, the sequences of proteins in these tests, tags left out. Where a name states a change or a piece, a line headed by the entry shows the natural chain unless it says otherwise.
UniProt O14684: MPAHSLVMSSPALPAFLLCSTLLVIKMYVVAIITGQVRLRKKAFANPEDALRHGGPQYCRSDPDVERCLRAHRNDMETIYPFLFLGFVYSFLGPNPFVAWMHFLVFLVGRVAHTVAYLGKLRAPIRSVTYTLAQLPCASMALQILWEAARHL

target: human PTGES (Homo sapiens (Human), UniProt O14684); assay: Human PTGES biochemical enzyme inhibition assay (conversion of PGH2 to PGE2, TR-FRET); conditions: Enzymatic conversion of PGH2 to PGE2

Row | SMILES | IC50
1 | Cc1c(NC(=O)C(c2ccc(-c3cncc(C(F)(F)F)c3)cc2)C2CCC2)cccc1C(C)CC(=O)O (single isomer, unassigned; stereoisomer 1) [Example 131, 3-{3-[(Cyclobutyl{4-[5-(trifluoromethyl)pyridin-3-yl]phenyl}acetyl)amino]-2-methylphenyl}butanoic acid, Stereoisomer 1] | 1020 nM
2 | Cc1c(NC(=O)C(c2ccc(-c3cncc(C(F)(F)F)c3)cc2)C2CCC2)cccc1C(C)CC(=O)O (single isomer, unassigned; stereoisomer 2) [Example 132, 3-{3-[(Cyclobutyl{4-[5-(trifluoromethyl)pyridin-3-yl]phenyl}acetyl)amino]-2-methylphenyl}butanoic acid, Stereoisomer 2] | 38.6 nM
3 | Cc1c(NC(=O)C(c2ccc(-c3cncc(C(F)(F)F)c3)cc2)C2CCC2)cccc1C(C)CC(=O)O (single isomer, unassigned; stereoisomer 3) [Example 133, 3-{3-[(Cyclobutyl{4-[5-(trifluoromethyl)pyridin-3-yl]phenyl}acetyl)amino]-2-methylphenyl}butanoic acid, Stereoisomer 3] | 1770 nM
4 | Cc1c(NC(=O)C(c2ccc(-c3cncc(C(F)(F)F)c3)cc2)C2CCC2)cccc1C(C)CC(=O)O (single isomer, unassigned; stereoisomer 4) [Example 134, 3-{3-[(Cyclobutyl{4-[5-(trifluoromethyl)pyridin-3-yl]phenyl}acetyl)amino]-2-methylphenyl}butanoic acid, Stereoisomer 4] | 7.59 nM
